US20090022663A1

Molecular target: purified recombinant 161P2F10B extracellular domain (Tag5-161P2F10B ECD, amino acids 46-875) (human) (UniProt O14638)
Test: SPR (BIAcore), MAb captured on chip, recombinant 161P2F10B injected, 1:1 fit

Kd: 9 nM
koff: 0.00059 s⁻¹
kon: 65000 M⁻¹ s⁻¹
Substance: H16-7.200 (antibody; modification not given)
